Experimental data as given in ChEMBL document CHEMBL5726786, “Substituted prolines/piperidines as orexin receptor antagonists” (2018).
pIC50: −log10 of the molar value.

By UniProt entry, the sequences of proteins in these tests, tags left out.
UniProt O43613, whole entry: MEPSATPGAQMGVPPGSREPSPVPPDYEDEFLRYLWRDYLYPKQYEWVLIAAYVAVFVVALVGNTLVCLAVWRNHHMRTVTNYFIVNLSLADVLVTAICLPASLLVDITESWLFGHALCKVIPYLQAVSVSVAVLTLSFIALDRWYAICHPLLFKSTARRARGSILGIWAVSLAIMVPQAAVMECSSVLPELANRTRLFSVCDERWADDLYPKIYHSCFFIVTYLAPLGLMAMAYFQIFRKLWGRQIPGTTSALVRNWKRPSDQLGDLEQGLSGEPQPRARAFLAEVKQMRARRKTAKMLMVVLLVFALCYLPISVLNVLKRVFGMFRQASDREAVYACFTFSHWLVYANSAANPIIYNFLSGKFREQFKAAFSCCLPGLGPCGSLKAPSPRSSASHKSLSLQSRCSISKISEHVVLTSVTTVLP

Biological target: Orexin/Hypocretin receptor type 1 (Homo sapiens, UniProt O43613)

`Cc1ccc(-c2ccc(C)nc2)c(C(=O)N2CCC[C@@H](C)[C@H]2CNc2nc3cc(Cl)ccc3o2)c1` gave a pIC50 of 7.00.
